Counter-ions that a name gives are not always drawn.
Biological target: T1, human NTCP (Homo sapiens, UniProt Q14973)
T1 sequence (Q14973 1-349): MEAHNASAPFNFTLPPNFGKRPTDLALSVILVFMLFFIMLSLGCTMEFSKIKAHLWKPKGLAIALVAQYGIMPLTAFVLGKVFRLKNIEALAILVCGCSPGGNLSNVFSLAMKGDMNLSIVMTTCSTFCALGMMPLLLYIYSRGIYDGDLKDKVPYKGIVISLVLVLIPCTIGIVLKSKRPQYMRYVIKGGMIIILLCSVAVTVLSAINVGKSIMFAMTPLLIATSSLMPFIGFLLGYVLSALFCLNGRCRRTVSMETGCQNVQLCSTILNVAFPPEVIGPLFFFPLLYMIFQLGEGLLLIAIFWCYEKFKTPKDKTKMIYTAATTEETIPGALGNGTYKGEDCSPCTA
Assay: Screening fluorescent competitive Myrcludex B-FITC binding assay (96-well, 10 µM drug)
Details: for B-score binding assay / %NTCP binding: screening Myrcludex B-FITC binding, 10 µM drug; for %NTCP binding: Prestwick library; for remaining activity at 10 µM: 0.5 h, read-out: %NTCP binding, screening Myrcludex B-FITC binding, 10 µM drug, Prestwick library

## CCCCC1(COC(=O)CCC(=O)O)C(=O)N(c2ccccc2)N(c2ccccc2)C1=O [Suxibuzone]
B-score
  B-score binding assay: 1.495

## O=S(=O)(O)CCS [Mesna]
  B-score binding assay: -2.287

## CC(O)(CS(=O)(=O)c1ccc(F)cc1)C(=O)Nc1ccc(C#N)c(C(F)(F)F)c1 (stereo not drawn) [Bicalutamide]
  B-score binding assay: -1.492

## CN(Cc1cnc2nc(N)nc(N)c2n1)c1ccc(C(=O)N[C@@H](CCC(=O)O)C(=O)O)cc1 (racemic) [Amethopterin (R,S)]
  B-score binding assay: 1.483
  %NTCP binding: 75.5223%

## CCc1nn(CCCN2CCN(c3cccc(Cl)c3)CC2)c(=O)n1CCOc1ccccc1 [Nefazodone HCl]
  B-score binding assay: -0.887

## CC(=O)Oc1cccc2c1C(=O)c1c(OC(C)=O)cc(C(=O)O)cc1C2=O [Diacerein]
  B-score binding assay: 2.04

## Cc1cccc(Nc2ccccc2C(=O)O)c1C [Mefenamic acid]
  B-score binding assay: -0.995

## CC(C)OC(=O)C(C)(C)Oc1ccc(C(=O)c2ccc(Cl)cc2)cc1 [Fenofibrate]
  B-score binding assay: -2.2

## C[C@@H]1C[C@H]2[C@@H]3C[C@H](F)C4=CC(=O)C=C[C@]4(C)[C@@]3(F)[C@@H](O)C[C@]2(C)[C@@]1(O)C(=O)COC(=O)C(C)(C)C [Flumethasone pivalate]
  remaining activity at 10 µM: 32.5%
  B-score binding assay: -0.33

## N=C(N)NC(=O)Cc1c(Cl)cccc1Cl [Guanfacine hydrochloride]
  B-score binding assay: -0.387

## Cc1cc(C(C#N)c2ccc(Cl)cc2)c(Cl)cc1NC(=O)c1cc(I)cc(I)c1O (stereo not drawn) [Closantel]
  B-score binding assay: -1.965

## COCCCC/C(=N\OCCN)c1ccc(C(F)(F)F)cc1 [Fluvoxamine maleate]
  B-score binding assay: -0.934

## CCC(NC(C)C)C(O)c1ccc(O)c(O)c1.CS(=O)(=O)O (stereo not drawn) [Isoetharine mesylate salt]
  B-score binding assay: 0.701
  %NTCP binding: 108.688%

## CC(=O)OC1CN2CCC1CC2 (stereo not drawn) [Aceclidine Hydrochloride]
  B-score binding assay: -1.034

## CC(=O)NC1CCSC1=O (racemic) [N-Acetyl-DL-homocysteine Thiolactone]
  B-score binding assay: -0.337
  %NTCP binding: 70.3255%

## Cl.O=C1OC(CN2CCOCC2)CN1/N=C/c1ccc([N+](=O)[O-])o1 (stereo not drawn) [Furaltadone hydrochloride]
  B-score binding assay: -0.58
  %NTCP binding: 86.4472%

## COc1ccc([C@@H]2CC(=O)c3c(O)cc(O[C@@H]4O[C@H](CO[C@@H]5O[C@@H](C)[C@H](O)[C@@H](O)[C@H]5O)[C@@H](O)[C@H](O)[C@H]4O)cc3O2)cc1O [Hesperidin]
  B-score binding assay: -0.676
  %NTCP binding: 50.2802%

## C[C@H](O)C(=O)Nc1c(I)c(C(=O)NC(CO)CO)c(I)c(C(=O)NC(CO)CO)c1I [Iopamidol]
  B-score binding assay: -1.757

## CCCc1ncc(C[n+]2ccccc2C)c(N)n1 [Amprolium hydrochloride]
  B-score binding assay: -1.746

## CCCc1nc2c(C)cc(-c3nc4ccccc4n3C)cc2n1Cc1ccc(-c2ccccc2C(=O)O)cc1 [Telmisartan]
  B-score binding assay: 0.104

## Cc1cccc(C)c1NC(=O)C1CCCCN1C (stereo not drawn) [Mepivacaine hydrochloride]
  B-score binding assay: -1.484

## CC(C(=O)O)c1ccc(C(=O)c2cccs2)cc1 (stereo not drawn) [Suprofen]
  B-score binding assay: 1.508

## OC(c1ccccc1)(c1ccccc1)C1CCNCC1 [Azacyclonol]
  remaining activity at 10 µM: 92.3%
  B-score binding assay: -0.253

## CCCC1O[C@@H]2C[C@H]3[C@@H]4CCC5=CC(=O)C=C[C@]5(C)[C@H]4[C@@H](O)C[C@]3(C)[C@]2(C(=O)CO)O1 (stereo partly drawn) [Budesonide]
  B-score binding assay: 1.783

## CC(=O)[C@H]1CC[C@H]2[C@@H]3C=CC4=CC(=O)CC[C@@]4(C)[C@@H]3CC[C@]12C [Dydrogesterone]
  B-score binding assay: 0.988

## CCCCNc1c(C(=O)OCC)c(C)nc2c1cnn2CC.Cl [Tracazolate hydrochloride]
  B-score binding assay: -0.372

## CC(C)(C)NCC(O)c1cc(Cl)c(N)c(Cl)c1 (stereo not drawn) [Clenbuterol hydrochloride]
  remaining activity at 10 µM: 73.8%
  B-score binding assay: 0.16

## N#Cc1cc(NC(=O)C(=O)O)c(Cl)c(NC(=O)C(=O)O)c1 [Lodoxamide]
  B-score binding assay: 0.075
  %NTCP binding: 82.3017%

## CN(C)CCCN1c2ccccc2Sc2ccc(Cl)cc21 [Chlorpromazine hydrochloride]
  B-score binding assay: -4.067

## CC(C)(C#N)c1cc(Cn2cncn2)cc(C(C)(C)C#N)c1 [Anastrozole]
  B-score binding assay: -0.691

## O=C(N[C@H](CO)[C@H](O)c1ccc([N+](=O)[O-])cc1)C(Cl)Cl [Chloramphenicol]
  B-score binding assay: -0.789

## C[C@H](Cc1cc2c(c(C(N)=O)c1)N(CCCO)CC2)NCCOc1ccccc1OCC(F)(F)F [Silodosin]
  B-score binding assay: -0.989

## O.O=C1C(O)=C(O)C(=O)C(O)=C1O [Tetrahydroxy-1,4-quinone hydrate]
  B-score binding assay: -0.041
  %NTCP binding: 102.531%

## CC1(C)S[C@@H]2[C@H](NC(=O)[C@H](N)c3ccc(O)cc3)C(=O)N2[C@H]1C(=O)O [Amoxicillin]
  B-score binding assay: -1.605

## Cc1cccc(N(C)C(=S)Oc2ccc3ccccc3c2)c1 [Tolnaftate]
  B-score binding assay: -1.018

## Cc1cc(=O)n(-c2ccccc2)n1C [Antipyrine]
  B-score binding assay: -1.108

## C[C@@H]1C[C@H]2[C@@H]3C[C@H](F)C4=CC(=O)C=C[C@]4(C)[C@@]3(Cl)[C@@H](O)C[C@]2(C)[C@H]1C(=O)COC(=O)C(C)(C)C [Clocortolone pivalate]
B-score
  B-score binding assay: 1.016

## CS(=O)(=O)OCCCCOS(C)(=O)=O [Busulfan]
  B-score binding assay: -0.772

## COc1cc(-c2ccc(N=Nc3ccc4c(S(=O)(=O)[O-])cc(S(=O)(=O)[O-])c(N)c4c3O)c(OC)c2)ccc1N=Nc1ccc2c(S(=O)(=O)[O-])cc(S(=O)(=O)[O-])c(N)c2c1O.[Na+].[Na+].[Na+].[Na+] [Chicago Sky Blue 6B]
  B-score binding assay: -13.6

## CC[N+](C)(CC)CCC[n+]1c(-c2ccccc2)c2cc(N)ccc2c2ccc(N)cc21.[I-].[I-] [Propidium iodide]
  B-score binding assay: 3.509
  %NTCP binding: 124.519%

## O=c1cc(-c2ccc(O)c(O)c2)oc2cc(O)cc(O)c12 [Luteolin]
  B-score binding assay: -0.068

## Oc1c(I)cc(Cl)c2cccnc12 [Clioquinol]
  B-score binding assay: -0.219

## CO[C@@]1(NC(=O)CSCC#N)C(=O)N2C(C(=O)O)=C(CSc3nnnn3C)CS[C@@H]21 [Cefmetazole sodium salt]
  B-score binding assay: -0.699

## C[C@@](Cc1ccc(O)c(O)c1)(NN)C(=O)O [Carbidopa]
  B-score binding assay: -0.546

## Nc1nc(Cl)nc2c1ncn2[C@H]1C[C@H](O)[C@@H](CO)O1 [Cladribine]
  B-score binding assay: -1.838

## COc1cc2ncnc(Nc3ccc(F)c(Cl)c3)c2cc1OCCCN1CCOCC1 [Gefitinib]
  B-score binding assay: -0.451

## CC(=O)OCC(=O)[C@@]12OC(C)(C)O[C@@H]1C[C@H]1[C@@H]3C[C@H](F)C4=CC(=O)C=C[C@]4(C)[C@@]3(F)[C@@H](O)C[C@@]12C [Fluocinonide]
  B-score binding assay: -0.282

## COc1cc(N)c(Cl)cc1C(=O)NC1CCN(CCCOc2ccc(F)cc2)CC1OC (stereo not drawn) [Cisapride]
  B-score binding assay: -1.274

## CC(C)(C)NCC(O)COc1cccc2c1CCC(=O)N2 (stereo not drawn) [Carteolol hydrochloride]
  B-score binding assay: 0.356

From publication PMC5681660, “Reduced hepatitis B and D viral entry using clinically applied drugs as novel inhibitors of the bile acid transporter NTCP” (Scientific Reports, 2017)
